By UniProt entry, the sequences of proteins in these tests, tags left out.
UniProt P37288, whole entry: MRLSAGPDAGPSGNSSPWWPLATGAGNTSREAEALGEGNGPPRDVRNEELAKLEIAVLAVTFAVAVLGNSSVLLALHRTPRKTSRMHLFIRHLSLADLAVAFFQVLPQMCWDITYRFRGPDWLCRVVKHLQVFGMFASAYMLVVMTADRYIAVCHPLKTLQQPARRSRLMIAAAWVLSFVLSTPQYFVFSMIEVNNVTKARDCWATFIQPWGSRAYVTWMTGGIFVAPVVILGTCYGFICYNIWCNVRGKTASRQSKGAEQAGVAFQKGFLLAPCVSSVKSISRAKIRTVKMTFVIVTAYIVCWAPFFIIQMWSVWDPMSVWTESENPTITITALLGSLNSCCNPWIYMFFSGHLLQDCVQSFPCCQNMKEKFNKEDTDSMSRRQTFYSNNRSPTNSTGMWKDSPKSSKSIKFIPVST

According to patent US8778881B2 (priority 2004, dated 2014):

Legend:
hV1a receptor = target: T1, hV1a receptor (Homo sapiens, UniProt P37288); assay: hV1a receptor transcriptional reporter (luciferase) agonist assay in HEK-293 cells; type: cell-based; details: geometric mean; HEK-293 cells transiently transfected, 5 hours exposure, at least three independent experiments
T1 construct: expressed in transfected cells; host or cells: HEK-293 cells (transient transfection)
Procedure: (§1) Agonist activity of compounds on the hV1a receptor was determined in a transcriptional reporter assay by transiently transfecting a hV1a receptor expression DNA into HEK-293 cells in concert with a reporter DNA containing intracellular calcium responsive promoter elements regulating expression of firefly luciferase. See Boss, V., Talpade, D. J., Murphy, T. J. J. Biol. Chem. 1996, May 3; 271(18), 10429-10432 for further guidance on this assay. […] To determine selectivity, compounds were tested in luciferase-based transcriptional reporter assays expressing the human oxytocin (hOT) receptor. Assays for other receptors (hV2, hV1b, rat V1a and rat V2) were also conducted.
(§2) The EC50 value given is the geometric mean expressed in nanomol/L (nM). Selectivity values are given as EC50 ratios.

[1] = system: anaesthetised Sprague-Dawley male rats; assay: in vivo duration of action, blood pressure test in anaesthetised rats; parameters: species or system rat; details: ratio of decay rate of diastolic blood pressure response to standard AVP dose (0.1 nmol/kg i.v.) to decay rate for equieffective dose of compound; dibenamine-pretreated rats
[2] = target: T2, human oxytocin (hOT) receptor (Homo sapiens, UniProt P30559); assay: luciferase-based transcriptional reporter assay expressing the human oxytocin (hOT) receptor, for selectivity; type: cell-based; details: agonist efficacy at the hOT receptor compared to AVP; ratio not determined
T2 construct: expressed in transfected cells
T2 sequence (P30559 1-389): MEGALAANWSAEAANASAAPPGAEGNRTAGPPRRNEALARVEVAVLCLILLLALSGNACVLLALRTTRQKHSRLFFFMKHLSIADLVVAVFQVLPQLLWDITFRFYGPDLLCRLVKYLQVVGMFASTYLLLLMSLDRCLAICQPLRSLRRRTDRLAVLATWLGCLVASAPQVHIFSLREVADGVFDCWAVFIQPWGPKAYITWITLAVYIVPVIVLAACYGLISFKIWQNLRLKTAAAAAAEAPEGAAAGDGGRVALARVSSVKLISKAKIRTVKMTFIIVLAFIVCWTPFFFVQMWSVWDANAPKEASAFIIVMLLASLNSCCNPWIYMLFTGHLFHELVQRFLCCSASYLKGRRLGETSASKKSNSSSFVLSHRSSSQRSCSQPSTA
Procedure: as §1, §2

## CC[C@H](N)C(=O)NCC[C@H](NC(=O)[C@@H]1CCCN1C(=O)[C@@H]1CSSC[C@H](O)C(=O)N[C@@H](Cc2ccccc2)C(=O)N[C@@H]([C@@H](C)CC)C(=O)N[C@@H](CCCC(N)=O)C(=O)N[C@@H](CC(N)=O)C(=O)N1)C(=O)NCC(N)=O [Compound F180, reference compound]
hV1a receptor
  EC50: 0.56 nM
[1]
  in vivo duration relative to AVP: 3.8
[2]
  selectivity hOT/hV1a (class symbol): + (selective hV1a receptor agonist; EC50 hOT/hV1a ratio not determined due to very low agonist efficacy (<30% compared to AVP) at the hOT receptor)
